Some of these compounds have results that are not shown, active ones among them.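 Dose response: 5 concentrations. Exposure: 48 h. Format: 96-well plates. Endpoint: linear interpolation; highest concentration if not reached. GI50: concentration for 50% inhibition of growth. TGI: concentration producing complete growth inhibition.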
How the values were obtained:
Assay in all cases: inhibition of tumour cell growth, NCI panel, 48 h
KM12 colon = system: KM12 colon
HOP-62 NSCLC = system: HOP-62 NSCLC
SNB-75 CNS = system: SNB-75 CNS
MCF7 breast = system: MCF7 breast
NCI-H226 lung = system: NCI-H226 lung
TK-10 renal = system: TK-10 renal
K-562 leukemia = system: K-562 leukemia
PC-3 prostate = system: PC-3 prostate
MDA-MB-435 = system: MDA-MB-435
SF-539 CNS = system: SF-539 CNS
BT-549 breast = system: BT-549 breast
SK-OV-3 ovarian = system: SK-OV-3 ovarian
A549 NSCLC = system: A549 NSCLC
SNB-19 CNS = system: SNB-19 CNS
CAKI-1 renal = system: CAKI-1 renal
U251 CNS = system: U251 CNS
DU-145 prostate = system: DU-145 prostate
SK-MEL-2 melanoma = system: SK-MEL-2 melanoma
EKVX NSCLC = system: EKVX NSCLC
IGROV1 ovarian = system: IGROV1 ovarian
ACHN renal = system: ACHN renal
M14 melanoma = system: M14 melanoma
MOLT-4 leukemia = system: MOLT-4 leukemia
NCI/ADR-RES ovarian = system: NCI/ADR-RES ovarian
NCI-H23 lung = system: NCI-H23 lung
COLO 205 colon = system: COLO 205 colon
SN12C renal = system: SN12C renal
SK-MEL-5 melanoma = system: SK-MEL-5 melanoma
HOP-92 NSCLC = system: HOP-92 NSCLC

## CCCC#CC(O)(C(=O)OC1CN2CCC1CC2)C1CCCC1 (configuration not stated)
KM12 colon
  GI50: > 100 µM
  TGI: > 100 µM
HOP-62 NSCLC
  GI50: > 100 µM
  TGI: > 100 µM
SNB-75 CNS
  GI50: 93.8 µM
  TGI: > 100 µM
MCF7 breast
  GI50: > 100 µM
  TGI: > 100 µM
NCI-H226 lung
  GI50: > 100 µM
  TGI: > 100 µM
TK-10 renal
  GI50: > 100 µM
  TGI: > 100 µM
K-562 leukemia
  GI50: > 100 µM
  TGI: > 100 µM
PC-3 prostate
  GI50: > 100 µM
  TGI: > 100 µM
MDA-MB-435
  GI50: > 100 µM
  TGI: > 100 µM
SF-539 CNS
  GI50: > 100 µM
  TGI: > 100 µM
BT-549 breast
  GI50: > 100 µM
  TGI: > 100 µM
SK-OV-3 ovarian
  GI50: > 100 µM
  TGI: > 100 µM
A549 NSCLC
  GI50: > 100 µM
  TGI: > 100 µM
SNB-19 CNS
  GI50: > 100 µM
  TGI: > 100 µM
CAKI-1 renal
  GI50: > 100 µM
  TGI: > 100 µM
U251 CNS
  GI50: > 100 µM
  TGI: > 100 µM
DU-145 prostate
  GI50: > 100 µM
  TGI: > 100 µM
SK-MEL-2 melanoma
  GI50: > 100 µM
  TGI: > 100 µM
EKVX NSCLC
  GI50: > 100 µM
  TGI: > 100 µM
IGROV1 ovarian
  GI50: > 100 µM
  TGI: > 100 µM
ACHN renal
  GI50: > 100 µM
  TGI: > 100 µM
M14 melanoma
  GI50: > 100 µM
  TGI: > 100 µM
MOLT-4 leukemia
  GI50: > 100 µM
  TGI: > 100 µM
NCI/ADR-RES ovarian
  GI50: > 100 µM
  TGI: > 100 µM
NCI-H23 lung
  GI50: > 100 µM
  TGI: > 100 µM
COLO 205 colon
  GI50: > 100 µM
  TGI: > 100 µM
SN12C renal
  GI50: > 100 µM
  TGI: > 100 µM
SK-MEL-5 melanoma
  GI50: > 100 µM
  TGI: > 100 µM
HOP-92 NSCLC
  GI50: > 100 µM
